The values that follow are results of earlier work, collected in paper PMC7680388 (Cell chemical biology, 2020).

Sequences of proteins named here, by UniProt entry; tags and fusion partners are left off. A change or cut given only in a name is not applied to a line headed by its entry.
UniProt Q16186: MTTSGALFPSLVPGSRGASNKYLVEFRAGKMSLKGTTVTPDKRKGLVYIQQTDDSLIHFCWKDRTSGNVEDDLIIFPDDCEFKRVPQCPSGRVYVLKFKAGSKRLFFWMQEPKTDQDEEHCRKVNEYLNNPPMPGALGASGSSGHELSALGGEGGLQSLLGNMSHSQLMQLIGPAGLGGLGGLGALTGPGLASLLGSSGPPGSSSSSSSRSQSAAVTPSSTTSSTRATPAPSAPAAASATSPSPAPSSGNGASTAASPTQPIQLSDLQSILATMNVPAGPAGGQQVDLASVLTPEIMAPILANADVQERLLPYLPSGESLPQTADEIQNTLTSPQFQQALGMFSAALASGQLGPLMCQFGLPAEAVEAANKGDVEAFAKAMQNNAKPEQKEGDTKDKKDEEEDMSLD

The target in the data set is Rpn13 (Homo sapiens, UniProt Q16186). The note with it: read-out: affinity of Rpn13 for Ubiquitin; ref Hill et al 2017; cited from earlier work.

On to Ubiquitin, for which the Kd was approximately 40 µM.
